Columns and labels:
[1] = target: FIP200 claw domain, 1490-1594 (UniProt Q8TDY2); experiment: displacement of p-CCPG1 FIR2 peptide from claw; conditions: reference: unmodified TNIP1 peptide as competitor; sites S123
[2] = target: FIP200 claw domain, 1490-1594 (UniProt Q8TDY2); experiment: ITC; conditions: reference: unmodified TNIP1 FIR peptide

TNIP1 FIR motif (from UniProt Q15025) TNIP1_pS123 peptide as competitor
binding against the reference [1]: stronger

TNIP1 FIR motif (from UniProt Q15025) pS122 peptide
binding against the reference ([2]; sites S122): gained

TNIP1 FIR motif (from UniProt Q15025) pS123 peptide
binding against the reference ([2]; sites S123): gained
